Assay results taken from PMC4286029 (Inflammation Research, 2014).

The chains behind the UniProt entries cited, without tags or fusion partners. Residues count along the entry.
UniProt P23458, 850-1154 limits assumed: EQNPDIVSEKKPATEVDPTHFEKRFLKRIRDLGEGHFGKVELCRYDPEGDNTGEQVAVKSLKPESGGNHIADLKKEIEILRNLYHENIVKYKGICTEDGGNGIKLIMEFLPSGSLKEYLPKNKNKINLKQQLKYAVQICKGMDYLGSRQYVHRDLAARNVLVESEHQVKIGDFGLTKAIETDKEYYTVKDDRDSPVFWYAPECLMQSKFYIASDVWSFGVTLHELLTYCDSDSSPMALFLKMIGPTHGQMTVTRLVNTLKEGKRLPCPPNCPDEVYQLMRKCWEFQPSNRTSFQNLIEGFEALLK
UniProt O60674, 808-1132 limits assumed: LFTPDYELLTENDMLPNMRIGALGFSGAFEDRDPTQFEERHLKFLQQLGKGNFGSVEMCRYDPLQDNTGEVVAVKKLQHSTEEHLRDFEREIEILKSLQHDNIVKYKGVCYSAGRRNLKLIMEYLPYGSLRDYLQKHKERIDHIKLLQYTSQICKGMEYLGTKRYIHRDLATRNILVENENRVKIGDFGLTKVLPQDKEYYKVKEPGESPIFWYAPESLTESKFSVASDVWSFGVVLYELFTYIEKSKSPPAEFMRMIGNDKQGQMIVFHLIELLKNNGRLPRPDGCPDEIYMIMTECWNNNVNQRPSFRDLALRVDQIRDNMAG
UniProt P52333, 781-1124 limits assumed: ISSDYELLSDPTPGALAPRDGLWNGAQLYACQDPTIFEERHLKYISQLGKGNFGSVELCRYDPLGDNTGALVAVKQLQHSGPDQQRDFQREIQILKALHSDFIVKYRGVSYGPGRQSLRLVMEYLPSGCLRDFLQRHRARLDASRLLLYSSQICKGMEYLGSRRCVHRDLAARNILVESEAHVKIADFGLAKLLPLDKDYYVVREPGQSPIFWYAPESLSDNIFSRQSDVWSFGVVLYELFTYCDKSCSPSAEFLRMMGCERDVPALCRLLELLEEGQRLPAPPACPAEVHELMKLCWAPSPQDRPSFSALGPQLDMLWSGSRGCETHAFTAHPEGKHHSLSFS
UniProt P29597, 871-1187 limits assumed: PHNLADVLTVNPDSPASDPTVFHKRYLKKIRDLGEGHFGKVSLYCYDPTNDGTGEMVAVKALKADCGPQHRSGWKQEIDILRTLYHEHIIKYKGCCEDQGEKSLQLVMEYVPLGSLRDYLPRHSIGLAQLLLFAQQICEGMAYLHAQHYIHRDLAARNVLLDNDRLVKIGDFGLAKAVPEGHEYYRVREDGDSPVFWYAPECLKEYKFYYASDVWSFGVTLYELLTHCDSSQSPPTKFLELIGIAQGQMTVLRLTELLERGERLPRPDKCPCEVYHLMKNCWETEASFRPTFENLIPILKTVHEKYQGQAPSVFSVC

Assays:
[1] = biological target: T1, human JAK1 (Homo sapiens, UniProt P23458); conditions: Lineweaver–Burk plots
[2] = biological target: human JAK2 (Homo sapiens, UniProt O60674)
[3] = biological target: T2, human JAK3 (Homo sapiens, UniProt P52333)
[4] = biological target: T3, human Tyk2 (Homo sapiens, UniProt P29597); conditions: Lineweaver–Burk plots
[5] = system: human B cells; assay: cells; conditions: B-cell, 72 h, read-out: IC50, IL-21 plus anti-CD40 induced B cell proliferation
[6] = biological target: T1, human JAK1; assay: biochemical; conditions: JAK1, mean ± SEM, three experiments
[7] = biological target: T2, human JAK3; assay: biochemical
[8] = biological target: T3, human Tyk2; assay: biochemical; conditions: Tyk2, mean ± SEM, three experiments

C[C@H]1CN(C(=O)CC#N)[C@]12CCN(c1ncnc3[nH]ccc13)C2 [JTE-052]
inhibition mode, JAK1 [1]: competitive with ATP
inhibition mode, JAK2 [2]: competitive with ATP
inhibition mode, JAK3 [3]: competitive with ATP
inhibition mode, Tyk2 [4]: competitive with ATP
IC50 [5]: 49 ± 6 nM
Ki ([6]; Ki): 2.1 ± 0.3 nM
Ki ([6]; pKi): 2 nM
Ki [7]: 5.5 ± 0.3 nM
Ki ([8]; Ki): 14 ± 1 nM
Ki ([8]; pKi): 12.6 nM
